Data on one compound can be found in patent US8580780B2 (dated 2013).

Amino acid sequences for entries named in this document (tags omitted).
UniProt P41595, whole entry: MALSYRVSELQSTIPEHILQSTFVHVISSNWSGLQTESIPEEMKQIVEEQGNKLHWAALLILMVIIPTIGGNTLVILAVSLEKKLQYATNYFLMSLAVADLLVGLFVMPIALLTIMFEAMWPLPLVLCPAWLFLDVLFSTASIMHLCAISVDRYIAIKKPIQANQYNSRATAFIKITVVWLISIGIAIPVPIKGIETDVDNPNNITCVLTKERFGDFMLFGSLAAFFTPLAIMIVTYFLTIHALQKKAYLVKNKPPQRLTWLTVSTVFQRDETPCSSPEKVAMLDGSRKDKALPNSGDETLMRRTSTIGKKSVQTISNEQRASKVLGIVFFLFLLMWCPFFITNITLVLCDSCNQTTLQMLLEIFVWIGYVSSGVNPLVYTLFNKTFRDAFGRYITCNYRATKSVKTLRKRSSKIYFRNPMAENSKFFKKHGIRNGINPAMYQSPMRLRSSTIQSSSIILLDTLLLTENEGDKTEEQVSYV
UniProt P28223, whole entry: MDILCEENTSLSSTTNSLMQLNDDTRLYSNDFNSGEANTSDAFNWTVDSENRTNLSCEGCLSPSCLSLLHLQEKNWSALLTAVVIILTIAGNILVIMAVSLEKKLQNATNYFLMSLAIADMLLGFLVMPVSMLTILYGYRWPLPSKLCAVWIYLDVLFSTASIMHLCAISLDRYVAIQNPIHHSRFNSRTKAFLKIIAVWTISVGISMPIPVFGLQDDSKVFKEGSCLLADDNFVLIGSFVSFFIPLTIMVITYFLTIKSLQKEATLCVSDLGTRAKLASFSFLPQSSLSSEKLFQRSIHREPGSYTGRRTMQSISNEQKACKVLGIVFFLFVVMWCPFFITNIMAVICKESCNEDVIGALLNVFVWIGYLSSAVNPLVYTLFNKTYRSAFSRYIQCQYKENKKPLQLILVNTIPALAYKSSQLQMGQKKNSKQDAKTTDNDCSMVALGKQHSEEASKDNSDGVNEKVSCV

SMILES strings stand for the structures.

In one assay the target is human 5-HT2B receptor (Homo sapiens, UniProt P41595). As to conditions: normalized AUC at 5-HT2C / normalized AUC at 5-HT2B, relative to 5-HT.
For another assay, the target named is human 5-HT2A receptor (Homo sapiens, UniProt P28223). Conditions: normalized AUC at 5-HT2C / normalized AUC at 5-HT2A, relative to 5-HT.

On to `Clc1cccc(N2CCNCC2)c1` [mCPP, meta-chlorophenylpiperazine], for which, at human 5-HT2B receptor, the “Selectivity Ratio AUC 2C/2B” value stood at 2.1. In addition, the “Selectivity Ratio AUC 2C/2A” value at human 5-HT2A receptor is 2.1.
